# Tested on: NCI-28H cells
# Conditions: 72 hrs
structure (smiles),measurement,value
"CO[C@@]12[C@H](COC(N)=O)C3=C(C(=O)C(C)=C(N)C3=O)N1C[C@@H]1N[C@@H]12 [mitomycin, Mitomycin]","cytotoxicity to NCI-28H cells, comparison",clear cytotoxic effect
